Patent US5977135A

The chains behind the UniProt entries cited, without tags or fusion partners.
UniProt P21452, whole entry: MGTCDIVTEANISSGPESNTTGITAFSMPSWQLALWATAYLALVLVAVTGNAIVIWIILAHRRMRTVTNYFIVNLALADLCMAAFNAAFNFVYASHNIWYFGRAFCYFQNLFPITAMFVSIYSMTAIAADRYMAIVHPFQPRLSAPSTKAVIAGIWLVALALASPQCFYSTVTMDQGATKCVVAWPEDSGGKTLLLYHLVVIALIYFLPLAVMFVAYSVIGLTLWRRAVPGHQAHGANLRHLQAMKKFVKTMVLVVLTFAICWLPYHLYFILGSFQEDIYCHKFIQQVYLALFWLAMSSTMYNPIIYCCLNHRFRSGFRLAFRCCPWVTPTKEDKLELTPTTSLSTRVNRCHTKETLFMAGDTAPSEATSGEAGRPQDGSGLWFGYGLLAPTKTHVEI

Molecular target: human NK2 receptor (Homo sapiens, UniProt P21452)
Assay: Neurokinin A (NKA) Receptor-binding Assay (Test A), 3H-NKA binding to MEL cells expressing the human NK2 receptor
Conditions: versus 3H-NKA binding to MEL; standard compound, initial use of this assay
Text: Neurokinin A (NKA) Receptor-binding Assay (Test A)

IC50: 30 nM
Structure (SMILES): CSCC[C@@H]1NC(=O)[C@H](CC(C)C)NC(=O)CNC(=O)[C@H](Cc2ccccc2)NC(=O)[C@H](Cc2c[nH]c3ccccc23)NC(=O)[C@H](CCC(N)=O)NC1=O
